Source: patent US8324384B2, “Glucagon receptor antagonist compounds, compositions containing such compounds and methods of use” (Merck Sharp & Dohme Corp., priority 2010, dated 2012)

The chains behind the UniProt entries cited, without tags or fusion partners. Residues count along the entry.
UniProt P47871, 26-477 limits assumed: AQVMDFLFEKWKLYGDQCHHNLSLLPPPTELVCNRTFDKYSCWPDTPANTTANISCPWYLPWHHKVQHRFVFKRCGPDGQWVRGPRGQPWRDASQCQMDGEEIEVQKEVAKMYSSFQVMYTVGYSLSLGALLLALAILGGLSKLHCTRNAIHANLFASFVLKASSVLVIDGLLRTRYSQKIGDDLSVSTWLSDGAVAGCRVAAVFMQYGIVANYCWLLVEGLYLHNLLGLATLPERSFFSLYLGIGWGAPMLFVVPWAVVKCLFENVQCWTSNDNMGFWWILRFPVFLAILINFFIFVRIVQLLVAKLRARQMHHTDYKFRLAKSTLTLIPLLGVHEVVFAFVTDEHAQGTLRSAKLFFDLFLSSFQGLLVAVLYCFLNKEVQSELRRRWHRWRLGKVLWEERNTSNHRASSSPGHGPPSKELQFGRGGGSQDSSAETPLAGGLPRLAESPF

Target: cloned human glucagon receptor (Homo sapiens, UniProt P47871)
Test: Glucagon Receptor Binding Assay (125I-Glucagon, SPA, CHO cell membranes)
Conditions: inhibition of 125I-Glucagon binding to membranes of CHO cells expressing human glucagon receptor; more active isomer of indicated compounds
Description: Glucagon Receptor Binding Assay
A stable CHO (Chinese hamster ovary) cell line expressing cloned human glucagon receptor was maintained as described (Chiechi, et. al. J Biol Chem 272, 7765-9(1997); Cascieri, et. al. J Biol Chem 274, 8694-7(1999)). To determine antagonistic binding affinity of compounds, 0.001-0.003 mg of cell membranes from these cells were pre-incubated with 0.100 mg WGA-coated PVT SPA beads (Amersham) for 20 minutes at room temperature in 25 μL of a buffer containing 50 mM Tris-HCl (pH 7.5), 5 mM MgCl2, 2 mM EDTA, 0.1% BSA and 3% glycerol in Costar 384 well plates with clear bottoms (#3706). Next, 25 μL of ^125I-Glucagon (New England Nuclear, MA) (1×10^−14 mol per well) and either 1 μL solutions of test compounds or 0.001 mM unlabeled glucagon or DMSO were added and mixed. After 4-12 hours incubation at room temperature, the radioactivity bound to the cell membranes was determined in a radioactive emission detection counter (Wallac-Microbeta). Data were analyzed using the Data Analyzer software program of Merck & Co., Inc. The IC50 values were calculated using non-linear regression analysis assuming single-site competition.

- IC50: 2 nM
Compound: CCCC(c1ccc(C(=O)NCCC(=O)O)cc1)C(C(=O)N1CCc2cc(F)ccc2C1)c1ccc(Cl)cc1 (stereo not shown)
